PubChem BioAssay AID504462 (Sanford-Burnham Center for Chemical Genomics, 2011)
This is a selection; strong and weak results do not stand in their true shares. Activity calls are given as the source filed them. No stated cut-off is given here; in the data, active means inhibition above about 40%; inactive means the rest.

Chains of the proteins cited; added tags and fusions are not shown. Lines headed by an entry give the natural chain unless they say otherwise; changes in a name come on top.
UniProt Q9Y4P1: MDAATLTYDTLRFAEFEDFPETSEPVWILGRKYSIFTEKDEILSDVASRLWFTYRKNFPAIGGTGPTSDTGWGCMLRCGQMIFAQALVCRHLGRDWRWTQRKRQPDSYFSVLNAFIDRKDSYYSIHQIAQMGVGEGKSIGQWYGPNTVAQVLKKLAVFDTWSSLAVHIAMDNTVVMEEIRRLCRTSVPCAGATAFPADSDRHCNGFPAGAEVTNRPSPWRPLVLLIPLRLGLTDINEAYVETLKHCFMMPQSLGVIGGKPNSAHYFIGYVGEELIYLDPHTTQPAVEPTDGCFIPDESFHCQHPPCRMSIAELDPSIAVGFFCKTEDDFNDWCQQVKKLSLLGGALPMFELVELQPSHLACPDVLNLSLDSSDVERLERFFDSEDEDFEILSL

molecular target: Cysteine protease ATG4B (Homo sapiens) (UniProt Q9Y4P1); test: blockers of ATG4B cysteine protease activity – biochemical, fluorescence, uHTS, primary screen (AID 504462); conditions: ATG4B cleavage of LC3-PLA2, NBD-HPC fluorescence, 1 h; at 8.33 µM; hits give high values

Row | Structure (SMILES) | inhibition
1 | Clc1n[nH]nc1-c1nn[nH][15n]1 | inactive: -8.23%
2 | CC(C)(C)C(=O)NC(Sc1ncccn1)C(Cl)(Cl)Cl (stereo not given) | inactive: -0.48%
3 | CCOP(=O)(Nc1ccc(C)cn1)OCC | inactive: 6.79%
4 | CN(CCCl)Cc1cc(Cl)c(NC2=NCCN2)c(Cl)c1 | inactive: 7.07%
5 | O=P1(Nc2ccccn2)COc2ccccc2OC1 | inactive: 0.12%
6 | CCC1=CC2Cc3nc4ccc(Cl)cc4c(N)c3C(C1)C2 (stereo not given) | inactive: 8.01%
7 | CCOP(=O)(NC(=NC(C)c1ccccc1)NC(C)c1ccccc1)OCC (stereo not given) | inactive: -6.27%
8 | CC1(CBr)Cn2c(nc3ccccc3c2=O)S1 (stereo not given) | inactive: 3.57%
9 | CC(C)/C=N\N=C(\N)N[N+](=O)[O-] | inactive: 16.7%
10 | CN(C(=O)Cc1ccc(Cl)c(Cl)c1)[C@@H]1CCCC[C@H]1N1CCCC1 | inactive: 6.97%
11 | COc1ccccc1CNC(=O)COC(=O)C(O)(c1ccccc1)c1ccccc1 | inactive: -6.83%
12 | O=C(/C=C/c1ccccc1)OC1CN2CCC1CC2 (stereo not given) | inactive: -1.73%
13 | CCCC1OP(=O)(Nc2ccccc2)OCC1CC (stereo not given) | inactive: -5.46%
14 | CN(C)C1(CNC(=O)c2ccc(S(C)(=O)=O)cc2)CCCCC1 | inactive: 3.99%
15 | Cc1nn(-c2ccccc2)c2c1P(=O)(N1CCOCC1)N(C)C(c1ccccc1)=N2 (stereo not given) | inactive: -28.4%
16 | CC1CCC(C(C)C)C(OP(=O)(Nc2ccccn2)c2ccccc2)C1 (stereo not given) | inactive: 2.97%
17 | Cc1ccc(C(=O)OC2CN3CCC2CC3)cc1 (stereo not given) | inactive: 4.6%
18 | O=[As](O)(c1cccs1)c1cccs1 | inactive: 12%
19 | Cc1ccc(OCC(=O)OC2CN3CCC2CC3)cc1 (stereo not given) | inactive: 11.1%
20 | O=P1(Nc2ccc(Br)cn2)COc2ccccc2OC1 | inactive: 6.28%
21 | NS(=O)(=O)c1cccc(NC(=O)COC(=O)C(O)(c2ccccc2)c2ccccc2)c1 | inactive: -15.1%
22 | Nc1cccc([As](=O)(O)c2ccccc2)c1 | inactive: -4.51%
23 | O=P1(Nc2ncccn2)COc2ccccc2OC1 | inactive: -4.16%
24 | Nc1ccccc1[As](=O)(O)c1ccccc1 | inactive: 5.06%
25 | O=C(O)COc1ccc([As](=O)(O)O)cc1[N+](=O)[O-] | inactive: 1.14%

Row | Structure (SMILES) | inhibition
26 | CS(=O)(=O)c1cc([N+](=O)[O-])c2no[n+]([O-])c2c1 | inactive: 1.7%
27 | CCOP1(=S)c2c(C)nn(CCC#N)c2N=C(c2ccccc2F)N1C (stereo not given) | inactive: 0.48%
28 | O=P(Nc1nccs1)(Oc1ccccc1)Oc1ccccc1 | inactive: 7.63%
29 | O=P(Nc1nccs1)(c1ccccc1)c1nc2ccccc2s1 (stereo not given) | inactive: -2.09%
30 | O=[N+]([O-])c1ccc2c(c1)nnn2O | inactive: 6.28%
31 | CN(C)C(=O)c1cc([N+](=O)[O-])cc2c1-c1c(cc([N+](=O)[O-])cc1[N+](=O)[O-])C2=O | inactive: -2.85%
32 | CN(C(=O)Cc1ccc(Cl)c(Cl)c1)[C@H]1CC[C@@]2(CCCO2)C[C@@H]1N1CCCC1 | inactive: -1.99%
33 | N#CCCN(C(=O)COC(=O)C(O)(c1ccccc1)c1ccccc1)c1ccc(F)cc1 | inactive: -4.61%
34 | CCOP1(=S)c2c(C)nn(CCC#N)c2N=C(c2ccc(F)cc2)N1C (stereo not given) | inactive: -0.09%
35 | CN(C(=O)Cc1ccccc1)[C@@H]1CC[C@]2(CCCO2)C[C@H]1N1CCCC1 | inactive: -4.39%
36 | NC(=O)Nc1ccc([As](=O)(O)O)cc1 | inactive: -9.85%
37 | Cc1cccc(OCC(=O)OC2CN3CCC2CC3)c1 (stereo not given) | inactive: -6.55%
38 | O=[As](O)(c1cccc(O)c1)c1cccc(O)c1 | inactive: -4.59%
39 | O=[As](O)(O)c1cccnc1 | inactive: -2.02%
40 | COc1cc(C(=O)NCC2(N3CCOCC3)CCCCC2)cc(Cl)c1OC(C)C | inactive: 0.32%
41 | CS(=O)(=O)c1ccc(Cl)c(NC(=O)COC(=O)C(O)(c2ccccc2)c2ccccc2)c1 | inactive: -13.9%
42 | O=C(OC1CN2CCC1CC2)c1ccc(Cl)cc1 (stereo not given) | inactive: -8.36%
43 | COc1cc(C2NCCC3(OCCO3)C2(C)C)cc(OC)c1OC (stereo not given) | inactive: -3.3%
44 | CCOP(=O)(Nc1cccc2ccccc12)OCC | inactive: 3.18%
45 | CCCOP(=S)(Nc1nc(N)cc(=O)[nH]1)OCCC | inactive: -2.19%
46 | Nc1cccc2c([As](=O)(O)O)cccc12 | inactive: -2.46%
47 | Cc1ccc(NCCc2c([N+](=O)[O-])cc([N+](=O)[O-])cc2[N+](=O)[O-])cc1 | inactive: 2.78%
48 | COc1ccc2nc(NP(=O)(c3ccccc3)c3ccccc3)sc2c1 | inactive: -11.1%
49 | COc1cc(I)ccc1[As](=O)(O)O | inactive: -0.59%
50 | O=P1(N(CCCl)CCCl)OCCCN1CCCl (stereo not given) | inactive: 0.29%

Row | Structure (SMILES) | inhibition
51 | O=P1(N(CCCl)CCCl)Nc2ccccc2N1 | inactive: 0.73%
52 | O=C(OC1CN2CCC1CC2)C12CC3CC(CC(C3)C1)C2 (stereo not given) | inactive: -0.57%
53 | Cc1cc(=O)[nH]c(N[N+](=O)[O-])n1 | inactive: -0.06%
54 | Cc1c2c(nc3ccccc13)SC(C(Cl)Cl)C2 (stereo not given) | inactive: -5.88%
55 | COc1ccc(N/C(=N/P(=O)(N2CCOCC2)N2CCOCC2)N2CCOCC2)cc1 | inactive: -4.71%
56 | O=[N+]([O-])c1cc(Oc2ccc([N+](=O)[O-])cc2C(F)(F)F)cc([N+](=O)[O-])c1 | inactive: -2.71%
57 | Cc1ccc2nc3c(c(C)c2c1)CC(C(Cl)Cl)S3 (stereo not given) | inactive: 4.28%
58 | Cc1ccc(OP(=O)(Nc2ccc([N+](=O)[O-])cn2)Oc2ccc(C)cc2)cc1 | inactive: 5.01%
59 | O=[As](O)(c1ccc(O)cc1)c1ccccc1O | inactive: -0.81%
60 | C[As](=O)(O)c1cccc(C(=O)O)c1 | inactive: -2.98%
61 | O=[N+]([O-])c1ccc(-c2cc([N+](=O)[O-])c(O)c([N+](=O)[O-])c2)cc1 | inactive: -7.9%
62 | COc1cc(C(=O)NCC2(N3CCOCC3)CCCCC2)ccc1OCC(C)C | inactive: -6.77%
63 | CC(C)NC(=O)NP(=O)(Oc1ccccc1)Oc1ccccc1 | inactive: -3.85%
64 | O=C(OC1CN2CCC1CC2)c1cccc2[nH]cnc12 (stereo not given) | inactive: -0.96%
65 | CCN(CC)C(=S)SC(NC=O)C(Cl)(Cl)Cl (stereo not given) | inactive: 4.35%
66 | O=[N+]([O-])c1cc([N+](=O)[O-])c(-c2ccn[nH]2)s1 | inactive: -5.67%
67 | COC(=O)C1(C)COP(=O)(N2CCCCCC2)OC1 (stereo not given) | inactive: 2.45%
68 | CC(C)c1ccc(OP(=O)(Nc2ccccn2)Oc2ccccc2F)cc1 (stereo not given) | inactive: -1.81%
69 | ClCCSc1nnc(-c2cccnc2)o1 | inactive: -8.22%
70 | CCCCOc1ccc(C(=O)NCC2(N3CCCCC3)CCCCC2)cc1OC | inactive: 4.29%
71 | Cc1cc(SC(NC(=O)c2ccccc2)C(Cl)(Cl)Cl)nc(C(C)C)n1 (stereo not given) | inactive: 0.76%
72 | CC1CCNP(=O)(N(CCCl)CCCl)O1 (stereo not given) | inactive: -2.29%
73 | CCOC(=O)Nc1ccc([As](=O)(O)O)c(O)c1 | inactive: 7.33%
74 | O=[N+]([O-])c1ccc(Nc2ccc(Oc3ccc([N+](=O)[O-])cc3[N+](=O)[O-])cc2)c([N+](=O)[O-])c1 | inactive: -7.05%
75 | O=P(Nc1ccccn1)(c1cccc2ccccc12)c1cccc2ccccc12 | inactive: -16.2%

Row | Structure (SMILES) | inhibition
76 | Cc1cc(SC(NC=O)C(Cl)(Cl)Cl)ncn1 (stereo not given) | inactive: 5.56%
77 | CCOC(=O)Nc1cccc([As](=O)(O)O)c1 | inactive: 5.62%
78 | O=C(COc1ccccc1)OC1CN2CCC1CC2 (stereo not given) | inactive: -4.13%
79 | O=C(Nc1ccncc1[N+](=O)[O-])c1ccc([N+](=O)[O-])cc1[N+](=O)[O-] | inactive: -3.94%
80 | COP1(=S)c2c(C)nn(CCC#N)c2N=C(c2ccc(F)cc2)N1C (stereo not given) | inactive: 3.03%
81 | CCC(C)N(CC(C)C)C(=S)SC(NC(C)=O)C(Cl)(Cl)Cl (stereo not given) | inactive: -2.74%
82 | CCOC(=O)c1ccc(NC(=O)C(C)(CCl)SC)cc1 (stereo not given) | inactive: 0.99%
83 | O=C(OC1CN2CCC1CC2)c1cccc([N+](=O)[O-])c1 (stereo not given) | inactive: -6.31%
84 | O=[N+]([O-])c1cccc2n[nH]nc12 | inactive: -3.76%
85 | CC(=O)N1C2C3N(C(C)=O)C1C1N(C(C)=O)C(C(N1C(C)=O)N3C(C)=O)N2C(C)=O | inactive: -1.13%
86 | Cc1ccc(NP(=O)(Oc2ccccc2)Oc2ccccc2)nc1 | inactive: 2.08%
87 | CCc1nc2c(n1)c1c(non1O)c1c2no[n+]1[O-] | inactive: -1.69%
88 | O=[N+]([O-])c1cc([N+](=O)[O-])c(CCNc2ccccc2)c([N+](=O)[O-])c1 | inactive: -1.59%
89 | COc1ccc(C2=NCC(CBr)S2)cc1 (stereo not given) | inactive: -13.3%
90 | CC(C)=N/N=C(\N)N[N+](=O)[O-] | inactive: -6.98%
91 | CN(C)C(=O)OCCc1n(C)cc[n+]1C | inactive: 7.74%
92 | CC1CCN(C(=O)Oc2c(Cl)cc(Cl)c3cccnc23)CC1 | inactive: 16.4%
93 | Nc1ccc([As](=O)(O)c2ccc(N)cc2)cc1 | inactive: -10%
94 | C[N+]1=C2C=CC=CC=C2SC12C([N+](=O)[O-])=CC([N+](=O)[O-])=C[C-]2[N+](=O)[O-] (stereo not given) | inactive: -2.25%
95 | CCN(/C(=N/P(=O)(N1CCOCC1)N1CCOCC1)N1CCOCC1)c1ccc(OC)cc1 | inactive: -2.54%
96 | O=C(Nc1cc([As](=O)(O)O)ccc1O)c1ccccc1 | inactive: 0.75%
97 | O=P1(N(CCCl)CCCl)OCCCS1 (stereo not given) | inactive: -3.18%
98 | COC(=O)C1(C)COP(=O)(Nc2ccccc2)OC1 (stereo not given) | inactive: -8.95%
99 | O=[N+]([O-])c1cccc(NC2=NCC(CBr)S2)c1 (stereo not given) | inactive: -5.03%
100 | O=C(O)CNc1ccc([As](=O)(O)O)cc1 | inactive: -1.8%
